Drawing on patent publication US10696710B2, “Pharmaceutical targeting of a mammalian cyclic di-nucleotide signaling pathway” (Board of Regents, The University of Texas System, priority 2012, dated 2020), this text covers IFNβ induction for 1 substance.

This experiment relates to HEK293T cells. In kind it is cell-based, human. Particulars: q-RT-PCR.

Where two headings read alike, the source gives them in different places.

For cyclic-GMP-AMP [cGAMP], the IFNβ induction result by setting is: (HEK293T cells stably expressing STING) “high level of IFNβ induction”; (HEK293T cells) “did not respond”.
